According to BigSolDB 2.1:

CCCc1nn(C)c2c(=O)[nH]c(-c3cc(S(=O)(=O)N4CCN(C)CC4)ccc3OCC)nc12.O=C(O)CC(O)(CC(=O)O)C(=O)O
Details	solubility (mole fraction)
in PEG-400, 293.2 K	0.0023
in PEG-400, 298.2 K	0.00252
in PEG-400, 303.2 K	0.00293
in PEG-400, 308.2 K	0.00366
in PEG-400, 313.2 K	0.00416

in water
Details	solubility (mole fraction)
293.2 K	9.91e-05
298.2 K	0.000125
303.2 K	0.000135
308.2 K	0.000169
313.2 K	0.000191
